Tests used:
[1] = test system: MOLT-4 cells; test: Cell viability / proliferation assay (ATPlite), MOLT-4; format: cell-based, human; conditions: 48 hrs; range in words
[2] = test system: H929 and L363 cells; test: MTS assay, LCL161-sensitive multiple myeloma cell lines; conditions: H929 and L363, 48 hr, 20 μM; result in words
[3] = test system: BxPC3 and PANC-1 cells; test: Co-treatment with gemcitabine (GEM) and IAP inhibitors, BxPC3 and PANC-1; conditions: GEM 24 h, then GEM + 15 μM IAP inhibitor 24 h, result in words

## CN[C@@H](C)C(=O)N[C@@H](CNC(=O)c1ccc(S(=O)(=O)F)cc1)C(=O)N1CCC[C@@H]1c1cncc(Cc2cccc(F)c2)n1
[1]
  IC50, cell viability of MOLT-4: single digit micromolar range
[2]
  activity in LCL161-sensitive MM cell lines: approximately equipotent
[3]
  effect in combination with gemcitabine, BxPC3 and PANC-1 (pancreatic cancer cell lines, FIG. 10E): significantly sensitize
[3]; listed as compound 34
  effect in combination with gemcitabine, BxPC3 and PANC-1 (pancreatic cancer cell lines, FIG. 10E): significant synergism
